Source: patent US6900343B1, “Method for the purification of metallocenes” (Basell Polyolefine GmbH, priority 1998, dated 2005)

Assay: Solubility comparison in toluene at room temperature

solubility: about 18 mmol/l
SMILES: CC1=Cc2c(ccc3ccccc23)[C]12[Si](C)(C)[C]1(C(C)=Cc3c1ccc1ccccc31)[Zr]2([Cl])[O]c1cc(C)ccc1C(C)C (stereo not shown) [Compound 3, Dimethylsilanediylbis(2-methyl-4,5-benzoindenyl)zirconium Monochloride mono(2-isopropyl-5-methylphenoxide)]
